Results from PubChem BioAssay AID504652 (National Center for Advancing Translational Sciences (NCATS), 2011).
Values joined by “and” are separate entries in the source; they are usually repeats but may differ in a detail not shown here. Equal entries are not always repeated. The list shows a part of the results, in another mix than the full data. Active and inactive are the calls of the source. No stated cut-off is given here; in the data, active means activity change below about -30%; inactive means the rest.

Chains of the proteins cited; added tags and fusions are not shown.
UniProt P21728, whole entry, looked up: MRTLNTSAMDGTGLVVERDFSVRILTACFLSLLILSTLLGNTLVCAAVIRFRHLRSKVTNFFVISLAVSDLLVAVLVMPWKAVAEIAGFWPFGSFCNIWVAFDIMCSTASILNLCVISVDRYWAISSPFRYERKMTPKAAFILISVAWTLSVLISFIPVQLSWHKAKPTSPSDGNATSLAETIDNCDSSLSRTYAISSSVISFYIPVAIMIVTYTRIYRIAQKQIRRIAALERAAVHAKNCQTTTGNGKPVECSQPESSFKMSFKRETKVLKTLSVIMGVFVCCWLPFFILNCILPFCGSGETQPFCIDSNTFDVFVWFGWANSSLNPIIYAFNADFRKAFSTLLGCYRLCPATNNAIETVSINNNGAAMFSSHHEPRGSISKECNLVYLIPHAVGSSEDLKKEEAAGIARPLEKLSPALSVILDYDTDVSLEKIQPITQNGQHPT

Target: D(1A) dopamine receptor (Homo sapiens) (UniProt P21728)
Assay: Antagonist of Human D 1 Dopamine Receptor: qHTS
Details: HEK293 TREx D1 cells, calcium flux, dopamine EC80; at 10 µM; active compounds read low
Description: Dopamine receptors (DARs) are involved in the etiology and/or therapy of a number of neuropsychiatric and endocrine disorders. For instance, all receptor-based antiparkinsonian drugs work via stimulating the […] DAR subtype whereas all FDA-approved antipsychotic agents are antagonists of this receptor. […] There are three different types of allosteric modulators that we are seeking, two of which will stimulate or augment receptor signaling, allosteric agonists and potentiators, while the third, allosteric antagonists, will attenuate receptor signaling. The present primary screening assay measures compound antagonism after an EC80 addition of dopamine by tracking calcium flux in a […], inducible Hek293 Trex D1 cell line. NIH Chemical Genomics Center [NCGC] NIH Molecular Libraries Probe Centers Network [MLPCN] MLPCN Grant: NS064831-01 Assay Submitter (PI): David Sibley
Freshly passaged cells are plated in 1536 well black, clear bottom plates at a density of 4000 cells/well in 3 ul of complete media containing 1x tetracycline inducer. After an overnight incubation at 30 C in 5% CO2, cells are loaded with 2 ul of the no wash Calcium Assay Kit (ABD Bioquest) and incubated at room temperature for 30 to 90 minutes. Agonist read: A 10 cycle (1 second/cycle) baseline measurement is taken and then the FDSS online 1536 pintool delivers 23 nl of compound library (as well as dopamine controls) to the plate. The plate is measured for kinetically at 1 cycle/sec for 180 seconds. Following the 180 second read, 1 ul of an EC80 (negative modulation assay) is delivered by an onboard pipette head. Measurements are taken kinetically for an additional 180 seconds.
On the % scale 0 is the no-effect control and ±100 the full control effect.

SMILES | activity change, negative = inhibition
COC(=O)c1cc2c(s1)N=C(c1ccccc1)N(C)P2(=O)N1CCOCC1 (stereo not given) | inactive: -3.9%
Cc1ccc(OP(=O)(Nc2ccccn2)Oc2ccc(C)cc2)cc1 | inactive: -2.94%
CC(=O)NC(SC(=S)N(CC(C)C)CC(C)C)C(Cl)(Cl)Cl (stereo not given) | inactive: -24.3%
O=C(OC1CN2CCC1CC2)c1ccccc1 (stereo not given) | inactive: -12.9%
CCC(=O)N1C2C3N(C(=O)CC)C1C1N(C(=O)CC)C(C(N1C(=O)CC)N3C(=O)CC)N2C(=O)CC | inactive: -0.647%
Cc1ccccc1OP(=O)(Nc1ccccn1)Oc1ccccc1C | inactive: -18.4%
CN(C)C(=O)Oc1noc2ccccc12 | inactive: -2.45%
O=c1c2cc([N+](=O)[O-])ccc2[nH]c2c([N+](=O)[O-])cc([N+](=O)[O-])cc12 | active: -30.1%
CCNC(=S)/N=C(\N)N[N+](=O)[O-] | inactive: -4.3%
O=C(NC1CCS(=O)(=O)C1)NP(=S)(Oc1ccccc1)Oc1ccccc1 (stereo not given) | inactive: -1.36%
c1ccc(-c2nn[nH]n2)c(-c2nn[nH]n2)c1 | inactive: -9.99%
CCOC(=O)NC(Sc1ccccc1)C(Cl)(Cl)Cl (stereo not given) | inactive: -4.97%
Cc1ccc(NP(=O)(Oc2cccc(C)c2)Oc2cccc(C)c2)nc1 | inactive: -11%
CC(=O)c1ccc(N2CC2c2ccncc2)cc1 (stereo not given) | inactive: -7.33%
Cc1ccccc1CN(C)C(=O)COC(=O)C(O)(c1ccccc1)c1ccccc1 | inactive: 9.81%
C[C@@H]1C=CCP(=O)(Oc2ccccc2)O1 (stereo not given in full) | inactive: 11.6%
C[C@H]1OP(=O)(Oc2ccccc2)C[C@@H]2O[C@@H]21 (stereo not given in full) | inactive: 8.37%
CC(=O)Nc1ccc([As](=O)(O)O)c(O)c1 | inactive: 2.27%
CC(=O)Nc1ccc(Oc2c([N+](=O)[O-])cc([N+](=O)[O-])cc2[N+](=O)[O-])cc1 | inactive: 3.11%
O=P1(Nc2nc3ccc(Cl)cc3s2)COc2ccccc2O1 (stereo not given) | inactive: -12.8%
CCOc1ccc(C2=NCC(CBr)S2)cc1 (stereo not given) | inactive: 6.6%
CC(C)(C)C(=O)NC(Sc1ccccc1)C(Cl)(Cl)Cl (stereo not given) | inactive: 0.929%
CC(C)C(=O)NC(Sc1ccccc1)C(Cl)(Cl)Cl (stereo not given) | inactive: -1.25%
O=P(Nc1nccs1)(c1ccccc1)c1ccccc1 | inactive: 1.1%
c1nnnn1CCn1cnnn1 | inactive: -0.568%

SMILES | activity change, negative = inhibition
O=[N+]([O-])c1ccc(O)c(/C=N/Nc2ccc([N+](=O)[O-])cc2[N+](=O)[O-])c1 | inactive: -15.8%
O=[N+]([O-])c1ncn(CCn2cnc([N+](=O)[O-])n2)n1 | inactive: 4.09%
CC(=O)NC(SC(=S)N(C)C)C(Cl)(Cl)Cl (stereo not given) | active: -57.4%
O=[As](O)(c1ccccc1)c1ccc(O)cc1 | inactive: -17%
Nc1ccc([As](=O)(O)c2ccc([N+](=O)[O-])cc2)cc1 | inactive: 8.59%
C(Cc1nn[nH]n1)Cc1nn[nH]n1 | inactive: 14.8%
O=C(OC1CN2CCC1CC2)c1cccc(Cl)c1 (stereo not given) | inactive: -10.6%
O=P(Nc1ccccn1)(c1ccc(Br)cc1)c1ccc(Br)cc1 | inactive: 0.306%
CN(C)C1(CNC(=O)c2ccc(Cl)c(S(N)(=O)=O)c2)CCCCC1 | inactive: -13.8%
O=P(Nc1nc2ccccc2s1)(c1ccccc1)c1ccccc1 | inactive: -10.1%
C[C@H]1OP(=O)(Oc2ccccc2)[C@H](O)[C@H](O)[C@H]1N=[N+]=[N-] (stereo not given in full) | inactive: 4.18%
CC(C)(C)C(=O)NC(Sc1ccncn1)C(Cl)(Cl)Cl (stereo not given) | inactive: 16.1%
O=[N+]([O-])c1ncn(CCn2ncnc2[N+](=O)[O-])n1 | inactive: -6.12%
O=[N+]([O-])c1cccc(NC2=NCC(CBr)S2)c1 (stereo not given) | inactive: 5.68%
O=C(O)CNc1ccc([As](=O)(O)O)cc1 | inactive: 5.67%
O=C(Nc1cc([As](=O)(O)O)ccc1O)c1ccccc1 | inactive: 8.58%
Nc1ccc([As](=O)(O)c2ccc(N)cc2)cc1 | inactive: -9.19%
C[N+]1=C2C=CC=CC=C2SC12C([N+](=O)[O-])=CC([N+](=O)[O-])=C[C-]2[N+](=O)[O-] (stereo not given) | inactive: -4.54%
CCN(/C(=N/P(=O)(N1CCOCC1)N1CCOCC1)N1CCOCC1)c1ccc(OC)cc1 | inactive: 6.92%
CC(C)=N/N=C(\N)N[N+](=O)[O-] | inactive: -1.5%
CN(C)C(=O)OCCc1n(C)cc[n+]1C | inactive: 9.32%
CC1CCN(C(=O)Oc2c(Cl)cc(Cl)c3cccnc23)CC1 | inactive: -9.45%
COc1ccc(C2=NCC(CBr)S2)cc1 (stereo not given) | inactive: 4.38%
O=[N+]([O-])c1cccc2n[nH]nc12 | inactive: 0.269%
CC(=O)N1C2C3N(C(C)=O)C1C1N(C(C)=O)C(C(N1C(C)=O)N3C(C)=O)N2C(C)=O | inactive: -5.72%

SMILES | activity change, negative = inhibition
Cc1ccc(NP(=O)(Oc2ccccc2)Oc2ccccc2)nc1 | inactive: -16%
CCc1nc2c(n1)c1c(non1O)c1c2no[n+]1[O-] | inactive: 3.87%
O=[N+]([O-])c1cc([N+](=O)[O-])c(CCNc2ccccc2)c([N+](=O)[O-])c1 | inactive: 10.9%
Nc1cc(N)c2nonc2c1[N+](=O)[O-] | inactive: -8.45%
Oc1ccccc1CNc1ccccn1 | inactive: -9.78%
Cc1c2non([O-])c-2c(C)[n+](=O)[n+]1[O-] | inactive: 9.72%
O=C(NC(Sc1ccncn1)C(Cl)(Cl)Cl)c1ccccc1 (stereo not given) | inactive: 2.44%
NC(=O)c1cc([N+](=O)[O-])cc([N+](=O)[O-])c1N | inactive: 6.21%
CN(C(=O)Cc1ccc(Cl)c(Cl)c1)[C@H]1CCCC[C@H]1N1CCCC1 | inactive: -18.8%
Cc1ccc(N/C(=N/P(=O)(N2CCOCC2)N2CCOCC2)N2CCOCC2)cc1 | inactive: 11%
COc1ccccc1OP(=O)(Nc1ccc(C)cn1)Oc1ccccc1OC | inactive: 9.11%
Cc1ccc(OP(=O)(Nc2nccs2)Oc2ccc(C)cc2)cc1 | inactive: 1.98%
Clc1ccc(Cl)c(NC2=NCC(CBr)S2)c1 (stereo not given) | inactive: 6.18%
CN1CCCC(OC(=O)C(c2ccccc2)c2ccccc2)C1 (stereo not given) | inactive: 5.74%
O=[N+]([O-])c1cc([N+](=O)[O-])c(CCN2CCOCC2)c([N+](=O)[O-])c1 | inactive: -12.8%
CCN(N=Nc1nonc1N)c1nonc1N | inactive: -4.37%
Nc1cccc2ccc([As](=O)(O)O)cc12 | inactive: 7.55%
O=C(O)c1ccccc1[As](=O)(O)O | inactive: 7.27%
CC(=O)Nc1ccc([As](=O)(O)O)cc1 | inactive: -3.06%
O=P(Nc1nc2ccc(Cl)cc2s1)(c1ccccc1)c1ccccc1 | active: -48.3%
CCOP(=O)(Nc1ccccc1)OCC | inactive: -7.71% and inactive: 0.862%
Cc1cc(SC(NC(=O)c2ccc(F)cc2)C(Cl)(Cl)Cl)ncn1 (stereo not given) | inactive: 4.99%
Cc1ccc(NP(=O)(Oc2ccccc2F)Oc2ccccc2F)nc1 | inactive: 5.21%
CC(C)c1ccc(OP(=O)(Nc2ccccn2)Oc2ccccc2F)cc1 (stereo not given) | inactive: 2.1%
ClCCSc1nnc(-c2cccnc2)o1 | inactive: 2.97%

SMILES | activity change, negative = inhibition
CCN(CC)C(=S)SC(NC=O)C(Cl)(Cl)Cl (stereo not given) | inactive: 3.73%
CC(C)NC(=O)NP(=O)(Oc1ccccc1)Oc1ccccc1 | inactive: 18.1%
O=[N+]([O-])c1cc([N+](=O)[O-])c(-c2ccn[nH]2)s1 | inactive: -12.8%
C[As](=O)(O)c1cccc(C(=O)O)c1 | inactive: 3.26%
O=[As](O)(c1ccc(O)cc1)c1ccccc1O | inactive: 9.8%
COc1cc(C(=O)NCC2(N3CCOCC3)CCCCC2)ccc1OCC(C)C | inactive: 0.207%
Cc1ccc2nc3c(c(C)c2c1)CC(C(Cl)Cl)S3 (stereo not given) | inactive: -2.36%
Cc1ccc(OP(=O)(Nc2ccc([N+](=O)[O-])cn2)Oc2ccc(C)cc2)cc1 | inactive: -16.8%
COc1ccc(N/C(=N/P(=O)(N2CCOCC2)N2CCOCC2)N2CCOCC2)cc1 | inactive: 2.81%
O=C(OC1CN2CCC1CC2)C12CC3CC(CC(C3)C1)C2 (stereo not given) | inactive: -2.33%
Cc1cc(=O)[nH]c(N[N+](=O)[O-])n1 | inactive: 3.53%
Cc1c2c(nc3ccccc13)SC(C(Cl)Cl)C2 (stereo not given) | inactive: 0.983%
COc1ccc2nc(NP(=O)(c3ccccc3)c3ccccc3)sc2c1 | inactive: -16.1%
COc1cc(I)ccc1[As](=O)(O)O | inactive: 2.5%
CCOC(=O)c1ccc(NC(=O)C(C)(CCl)SC)cc1 (stereo not given) | inactive: -3.34%
O=C(OC1CN2CCC1CC2)c1cccc([N+](=O)[O-])c1 (stereo not given) | inactive: 6.93%
CCOP(=O)(Nc1cccc2cccnc12)OCC | inactive: -1.58%
CCC(C)N(CC(C)C)C(=S)SC(NC(C)=O)C(Cl)(Cl)Cl (stereo not given) | inactive: 24.2%
COP1(=S)c2c(C)nn(CCC#N)c2N=C(c2ccc(F)cc2)N1C (stereo not given) | inactive: -5.91%
O=C(COc1ccccc1)OC1CN2CCC1CC2 (stereo not given) | inactive: -6.94%
O=C(Nc1ccncc1[N+](=O)[O-])c1ccc([N+](=O)[O-])cc1[N+](=O)[O-] | inactive: -4.8%
CCOC(=O)Nc1cccc([As](=O)(O)O)c1 | inactive: -3.92%
O=[N+]([O-])c1ccc(Nc2ccc(Oc3ccc([N+](=O)[O-])cc3[N+](=O)[O-])cc2)c([N+](=O)[O-])c1 | inactive: 1.39%
O=P(Nc1ccccn1)(c1cccc2ccccc12)c1cccc2ccccc12 | inactive: 1.08%
Cc1cc(SC(NC=O)C(Cl)(Cl)Cl)ncn1 (stereo not given) | inactive: 4.99%
